Laboratory results as given in PMC6273627, “Extended N-Arylsulfonylindoles as 5-HT6 Receptor Antagonists: Design, Synthesis & Biological Evaluation” (Molecules, 2016).

Amino acid sequences for entries named in this document (tags omitted).
UniProt P50406, whole entry: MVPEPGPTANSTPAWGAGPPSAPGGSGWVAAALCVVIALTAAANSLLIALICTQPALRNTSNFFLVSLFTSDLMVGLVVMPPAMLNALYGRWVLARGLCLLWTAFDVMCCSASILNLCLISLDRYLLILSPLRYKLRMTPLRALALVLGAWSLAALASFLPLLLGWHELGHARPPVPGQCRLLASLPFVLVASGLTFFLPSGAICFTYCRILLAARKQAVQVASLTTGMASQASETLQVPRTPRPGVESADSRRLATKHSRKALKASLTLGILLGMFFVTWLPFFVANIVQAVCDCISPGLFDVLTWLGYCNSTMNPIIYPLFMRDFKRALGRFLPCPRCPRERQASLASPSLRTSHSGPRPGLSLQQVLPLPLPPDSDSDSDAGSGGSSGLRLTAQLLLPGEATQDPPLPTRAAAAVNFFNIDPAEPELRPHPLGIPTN

Columns and labels:
[1] = molecular target: T1, recombinant human 5-HT6 receptor (Homo sapiens, UniProt P50406); details: compared with 4b, 4g, 4j
[2] = molecular target: T1, recombinant human 5-HT6 receptor; experiment: biochemical

Structure (SMILES)	decrease in affinity with pyridyl versus 2-methoxyphenyl group [1]	Ki [2] [nM]
Cc1ccc(S(=O)(=O)n2cc(C(O)CN3CCN(c4ccccn4)CC3)c3ccccc32)cc1 (stereo not drawn) [Compound 4a, 2-(4-(Pyridin-2-yl)piperazin-1-yl)-1-(1-tosyl-1H-indol-3-yl)ethanol]	10–35 times	479
O=S(=O)(c1ccc(I)cc1)n1cc(C(O)CN2CCN(c3ccccn3)CC2)c2ccccc21 (stereo not drawn) [Compound 4f, 1-(1-(4-Iodophenylsulfonyl)-1H-indol-3-yl)-2-(4-(pyridin-2-yl)piperazin-1-yl)ethanol]	10–35 times	372
O=S(=O)(c1cccc2ccccc12)n1cc(C(O)CN2CCN(c3ccccn3)CC2)c2ccccc21 (stereo not drawn) [Compound 4i, 1-(1-(Naphthalen-1-ylsulfonyl)-1H-indol-3-yl)-2-(4-(pyridin-2-yl)piperazin-1-yl)ethanol]	10–35 times	148
